Columns and labels:
[1] = tested on: RAW264.7; assay: Inhibition of MAPK/NFkappaB in ICR mouse RAW264.7 cells assessed as reduction in LPS-induced TNFalpha production pretreated for 0.5 hrs followed by LPS challenge and measured after 24 hrs by ELISA; assay type: cell-based
[2] = tested on: RAW264.7; assay: Inhibition of MAPK/NFkappaB in ICR mouse RAW264.7 cells assessed as reduction in LPS-induced IL6 production pretreated for 0.5 hrs followed by LPS challenge and measured after 24 hrs by ELISA; assay type: cell-based

Compound	inhibition [1]	inhibition [2]
COc1cc(/C=C/C(=O)N2CCC/C(=C\c3cc(OC)c(OC)c(OC)c3)C2=O)ccc1O	Dose-dependent effect	Dose-dependent effect
COc1cc(/C=C/C(=O)N2CCC/C(=C\c3cc(OC)c(OC)c(OC)c3)C2=O)ccc1OC(C)=O	Dose-dependent effect	Dose-dependent effect
